According to PubChem BioAssay AID940 (Emory University Molecular Libraries Screening Center, 2007):
Only a part is listed here, and it is no random draw. Active and inactive are the calls of the source.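 How the source made its calls: active means compounds whose cAMP rise, as percent of the full-agonist control response, exceeds 60; inactive means the rest.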

Amino acid sequences for entries named in this document (tags omitted).
UniProt P43116, whole entry: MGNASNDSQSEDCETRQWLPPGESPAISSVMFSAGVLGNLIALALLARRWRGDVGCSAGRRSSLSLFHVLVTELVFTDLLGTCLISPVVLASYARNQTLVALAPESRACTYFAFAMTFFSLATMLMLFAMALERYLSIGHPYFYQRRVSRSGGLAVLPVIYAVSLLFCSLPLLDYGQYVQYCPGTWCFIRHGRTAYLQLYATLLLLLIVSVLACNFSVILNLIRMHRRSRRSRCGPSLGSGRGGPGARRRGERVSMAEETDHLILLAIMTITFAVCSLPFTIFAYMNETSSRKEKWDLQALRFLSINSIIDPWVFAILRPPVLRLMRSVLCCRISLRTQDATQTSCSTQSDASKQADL

molecular target: Prostaglandin E2 receptor EP2 subtype (Homo sapiens) (UniProt P43116); assay: modulation of human EP2 prostaglandin signaling – cell-based, HTRF cAMP, PGE2 stimulation, primary screen (AID 940); details: EP2-expressing cells, cAMP HTRF FRET, PGE2 co-stimulation; at 25 µM; hits give high values;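 further: rat C6 glioma line stably carrying human EP2 under a CMV promoter; the protocol text gives 20 µM as final concentration; 100% = response of wells given 1 µM PGE2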

Row | Compound | induction
1 | N1=C(c2nnc(-c3nn[nH]n3)nn2)NNN1 | inactive: 17.7%
2 | CP(=O)(Nc1ccccc1Br)Oc1ccccc1 (centres undefined) | inactive: 8.07%
3 | COc1ccccc1OP(C)(=O)Nc1ccccc1 (centres undefined) | inactive: 19.4%
4 | CP(=S)(Nn1cnnc1)Oc1ccccc1 (centres undefined) | inactive: 9.61%
5 | CCc1ccc(OP(C)(=O)N2CCN(c3ccc([N+](=O)[O-])cc3)CC2)cc1 (centres undefined) | inactive: -65.8%
6 | CP(=O)(NC(=O)Nc1ccccc1)Oc1ccccc1 (centres undefined) | inactive: 16.5%
7 | Cc1cc(C)cc(OP(C)(=O)Nc2ccc(SC(F)(F)F)cc2)c1 (centres undefined) | inactive: 8.22%
8 | Cc1cccc(C)c1OP(C)(=O)Nc1ccc(SC(F)(F)F)cc1 (centres undefined) | inactive: 13.6%
9 | CP(=O)(Nc1ccc(SC(F)(F)F)cc1)Oc1ccc(Cl)cc1 (centres undefined) | inactive: -70.2%
10 | CP(=O)(Oc1ccccc1)OC(c1ccccc1)C(F)(F)F (centres undefined) | inactive: 43.6%
11 | CP(=O)(Nc1ccccn1)Oc1ccc(Cl)cc1 (centres undefined) | inactive: 8.77%
12 | CCOC(=O)c1ccc(NP(C)(=O)Oc2ccc(OC)cc2)cc1 (centres undefined) | inactive: -10.8%
13 | CCOP(C)(=S)SCC(=O)NC(C)C(=O)O (centres undefined) | inactive: 3.17%
14 | CCN(CC)CCCOC(=O)C(O)(c1ccccc1)c1ccccc1 | inactive: 15.6%
15 | O=[N+]([O-])c1ccc2c(c1)C=Nc1ccccc1O2 | inactive: -30.6%
16 | CC(C)(C)c1ccc(OP(C)(=O)Nc2ccc(SC(F)(F)F)cc2)cc1 (centres undefined) | inactive: -14.3%
17 | Cc1cccc(C)c1OP(C)(N)=O (centres undefined) | inactive: 9.86%
18 | Cc1cc(C)cc(OP(C)(N)=O)c1 (centres undefined) | inactive: 8.25%
19 | COc1ccccc1OP(C)(=O)Nc1cc(Cl)ccc1C (centres undefined) | inactive: -3.59%
20 | COc1ccc(OP(C)(=O)Nc2cccc(F)c2)cc1 (centres undefined) | inactive: -14.9%
21 | COc1ccccc1OP(C)(=O)Nc1ccc(C)cc1 (centres undefined) | inactive: 1.26%
22 | Cc1ccc(NP(C)(=O)Oc2ccccc2)c(C)c1 (centres undefined) | inactive: 9.78%

Row | Compound | induction
23 | CCOC(=O)c1ccc(NP(C)(=O)Oc2ccccc2)cc1 (centres undefined) | inactive: -51.1%
24 | O=C(O)c1cccc(Nc2c([N+](=O)[O-])cc([N+](=O)[O-])cc2[N+](=O)[O-])c1 | inactive: 25.9%
25 | CC1=NCCc2c1[nH]c1ccccc21.O=[N+]([O-])c1cc([N+](=O)[O-])c(O)c([N+](=O)[O-])c1 | inactive: 10.4%
26 | CCOC(=O)c1ccc(NP(C)(=O)Oc2cc(C)cc(C)c2)cc1 (centres undefined) | inactive: -68.2%
27 | Cc1cc(C)cc(OP(C)(=O)Nc2ccc(C)cc2C)c1 (centres undefined) | inactive: 1.66%
28 | COc1ccccc1OP(C)(=O)Nc1cccc(Br)c1 (centres undefined) | inactive: -9.21%
29 | Cc1ccc(C)c(NP(C)(=O)Oc2ccccc2)c1 (centres undefined) | inactive: 7.42%
30 | CP(=O)(Nc1cccc(Br)c1)Oc1ccccc1 (centres undefined) | inactive: -14.4%
31 | Cc1cc(C)cc(OP(C)(=O)Nc2ccccn2)c1 (centres undefined) | inactive: 2.75%
32 | O=[N+]([O-])c1cc([N+](=O)[O-])c(-n2nnc3ccccc32)c([N+](=O)[O-])c1 | active: 63.8%
33 | Cc1nc2ccc3ccccc3c2s1.O=[N+]([O-])c1cc([N+](=O)[O-])c(O)c([N+](=O)[O-])c1 | inactive: -6.42%
34 | O=[N+]([O-])c1cc([N+](=O)[O-])c(Nc2nnnn2CCO)c([N+](=O)[O-])c1 | inactive: 1.19%
35 | CCOC(=O)C(CC)C1=NC(C)(C)Cc2ccccc21.O=[N+]([O-])c1cc([N+](=O)[O-])c(O)c([N+](=O)[O-])c1 (centres undefined) | inactive: 10.2%
36 | CP(=O)(Nc1ccc(SC(F)(F)F)cc1)Oc1ccccc1 (centres undefined) | inactive: -32.2%
37 | CCCOc1ccc(NP(C)(=O)Oc2ccc(Cl)cc2)cc1 (centres undefined) | inactive: -91.1%
38 | COc1ccccc1OP(C)(=O)Nc1c(C)cccc1C (centres undefined) | inactive: 19.7%
39 | CN1CCCCC1COC(=O)C1(O)c2ccccc2CCc2ccccc21 (centres undefined) | inactive: -4.76%
40 | CN(C)CCOC(=O)C(O)(c1ccccc1)C1CCCCC1 (centres undefined) | inactive: 28.9%
41 | COc1ccc(NP(C)(=O)Oc2ccccc2OC)cc1 (centres undefined) | inactive: 19.9%
42 | COc1ccc(OP(C)(=O)Nc2cccc(Br)c2)cc1 (centres undefined) | inactive: -3.78%
43 | O=[N+]([O-])c1ccc(OP2(=O)COCCO2)cc1 (centres undefined) | inactive: -13%
44 | O=[N+]([O-])c1cc([N+](=O)[O-])c(NCC2CCS(=O)(=O)C2)c([N+](=O)[O-])c1 (centres undefined) | inactive: -11.3%
